Results as given in patent US20230416329A1, “A PEPTIDE WITH DISULFIDE BONDS AND INHIBITORY ACTIVITY AGAINST SERINE PROTEASES, DERIVED HYBRID PEPTIDES THEREOF, AND USES THEREOF” (INSTITUTE OF MATERIA MEDICA , CHINESE ACADEMY OF MEDICAL …, priority 2020, published 2023).

Assays:
[1] = target: NEP24.11 (Homo sapiens, UniProt P08473); test: Tolerance of GLP-1 and its analogues to NEP24.11 (RP-HPLC remaining peak area); assay type: in vitro ADME; details: peptide 30 μM, NEP24.11 1.0 ng/μL, 37° C.; for Remaining peak area (%)/NEP24.11: 0.0 h; for remaining at 0.5 h, 30 μM / remaining at 2 h, 30 μM / remaining at 4 h, 30 μM / remaining at 8 h, 30 μM: isolated NEP24.11 enzyme in buffer; for remaining at 0.5 h, 30 μM: pH 7.4, 0.5 h; for remaining at 2 h, 30 μM: pH 7.4, 2.0 h; for remaining at 4 h, 30 μM: pH 7.4, 4.0 h; for remaining at 8 h, 30 μM: pH 7.4, 8.0 h
Procedure: (§1) Mix by centrifugation at 8000 rpm for 30 seconds.
Arrange a certain volume of 0.04 μg/μL NEP24.11 enzyme solution in another sterile EP.

[2] = target: T1, trypsin (Bos taurus, UniProt P00760); test: in vitro; details: isolated enzyme trypsin, pH 7.8
T1 sequence (P00760 24-246): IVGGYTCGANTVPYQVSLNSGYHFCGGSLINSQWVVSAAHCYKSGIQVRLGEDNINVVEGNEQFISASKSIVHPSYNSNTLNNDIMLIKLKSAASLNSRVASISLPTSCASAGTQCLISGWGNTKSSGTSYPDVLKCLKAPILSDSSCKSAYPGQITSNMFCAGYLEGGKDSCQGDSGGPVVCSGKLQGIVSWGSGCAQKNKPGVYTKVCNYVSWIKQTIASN
Procedure: FIG. 17. […] At different time point, 25 μL aliquots was taken out, and 10% (v/v) TFA was added to terminate the reaction.
as §1
Arrange a certain volume of 0.05 μg/μL trypsin solution in another sterile EP. Incubate the EP tubes containing peptides and enzymes at 37° C. for 5 min, and separately add 6 μL of trypsin solution to each EP tube containing peptides and mix well. Start timing and extract 25 μL of reaction solution at 1.5, 3.0, 4.5, 6.0 and 9.0 min later, respectively. Add 3.75 μL of 10% TFA to terminate the reaction and mix well by centrifugation at 8000 rpm for 30 seconds.
Arrange a certain volume of 0.05 μg/μL trypsin solution in another sterile EP. Incubate the EP tubes containing peptides and enzymes at 37° C. for 5 min, and add 9 μL of trypsin solution to each EP tube containing peptides and mix well. Start timing and extract 25 μL of reaction solution at 1.5, 3.0, 4.5, 6.0, 9.0, 15.0, 30.0, and 60.0 min later, respectively. Add 3.75 μL of 10% TFA to terminate the reaction and mix well by centrifugation at 8000 rpm for 30 seconds.
(§2) Referring to the experimental method in Example 5, in vitro stability of salmon Calcitonin analogs with oral administration activity to the enzymatic hydrolysis by trypsin, chymotrypsin and elastase were performed.
(§3) Referring to the experimental method in Example 5, in vitro stability of IL-17A inhibitory peptides towards the enzymatic hydrolysis by trypsin, chymotrypsin and elastase were performed.

[3] = target: chymotrypsin (Bos taurus, UniProt P00766); test: in vitro; details: isolated enzyme chymotrypsin, pH 7.8, Remaining peak area (%)/chymotrypsin
Procedure: FIG. 18. […] At different time point, 25 μL aliquots was taken out, and 10% (v/v) TFA was added to terminate the reaction.
as §1
Arrange a certain volume of 0.05 μg/μL chymotrypsin solution in another sterile EP. Incubate the EP tubes containing peptides and enzymes at 37° C. for 5 min, and add 3 μL of […] solution to each EP tube containing peptides and mix well. Start timing and extract 25 μL of reaction solution at 1.5, 3.0, 4.5, 6.0 and 9.0 min later, respectively. Add 3.75 μL of 10% TFA to terminate the reaction and mix well by centrifugation at 8000 rpm for 30 seconds.
Arrange a certain volume of 0.05 μg/μL chymotrypsin solution in another sterile EP. Incubate the EP tubes containing peptides and enzymes at 37° C. for 5 min, and then add 4.5 μL of chymotrypsin solution to each EP tube containing peptides and mix well. Start timing and extract 25 μL of reaction solution at 1.5, 3.0, 4.5, 6.0, 9.0, 15.0, 30.0, and 60.0 min later, respectively. Add 3.75 μL of 10% TFA to terminate the reaction and mix well by centrifugation at 8000 rpm for 30 seconds.
as §2, §3

[4] = target: DPP-IV (Homo sapiens, UniProt P27487); test: Tolerance of GLP-1 and its analogues to DPP-IV (RP-HPLC remaining peak area); assay type: in vitro ADME; details: peptide 25 μM, DPP-IV 0.5 ng/μL, 37° C.; for Remaining peak area (%)/DPP-IV: 0.0 h; for remaining at 0.5 h, 25 μM / remaining at 2 h, 25 μM / remaining at 4 h, 25 μM / remaining at 8 h, 25 μM / remaining at 12 h, 25 μM: isolated DPP-IV enzyme in buffer, pH 8
Procedure: as §1
(2) Arrange a certain volume of 0.005 μg/μL DPP-IV solution in another sterile EP.

Structure (SMILES) | Remaining peak area (%)/NEP24.11 [1] | remaining at 0.5 h, 30 μM [1] | remaining at 2 h, 30 μM [1] | remaining at 4 h, 30 μM [1] | remaining at 8 h, 30 μM [1] | remaining at 0.025 h, 60 μM [2] | remaining at 0.05 h, 60 μM [2] | remaining at 0.075 h, 60 μM [2] | remaining at 0.1 h, 60 μM [2] | remaining at 0.15 h, 60 μM [2] | remaining at 0.025 h, 60 μM [3] | remaining at 0.05 h, 60 μM [3] | remaining at 0.075 h, 60 μM [3] | remaining at 0.1 h, 60 μM [3] | remaining at 0.15 h, 60 μM [3] | Remaining peak area (%)/DPP-IV [4] | remaining at 0.5 h, 25 μM [4] | remaining at 2 h, 25 μM [4] | remaining at 4 h, 25 μM [4] | remaining at 8 h, 25 μM [4] | also measured
CC[C@H](C)[C@H](NC(=O)[C@H](Cc1ccccc1)NC(=O)[C@H](CCC(=O)O)NC(=O)[C@H](CCCCN)NC(=O)[C@H](C)NC(=O)[C@H](C)NC(=O)[C@H](CCC(N)=O)NC(=O)CNC(=O)[C@H](CCC(=O)O)NC(=O)[C@H](CC(C)C)NC(=O)[C@H](Cc1ccc(O)cc1)NC(=O)[C@H](CO)NC(=O)[C@H](CO)NC(=O)[C@@H](NC(=O)[C@H](CC(=O)O)NC(=O)[C@H](CO)NC(=O)[C@@H](NC(=O)[C@H](Cc1ccccc1)NC(=O)[C@@H](NC(=O)CNC(=O)[C@H](CCC(=O)O)NC(=O)[C@H](C)NC(=O)[C@H](Cc1c[nH]cn1)NC(=O)CNC(=O)CNC(=O)[C@H](CCCNC(=N)N)NC(=O)[C@H](CO)NC(=O)[C@H](Cc1ccccc1)NC(=O)[C@H](CCCNC(=N)N)NC(=O)[C@H](CCC(N)=O)NC(=O)CNC(=O)CNC(=O)[C@@H]1CSSC[C@H](NC(=O)CNC(=O)CN)C(=O)N2CCC[C@H]2C(=O)N[C@@H](CCCCN)C(=O)N[C@@H]([C@@H](C)CC)C(=O)N[C@@H](CC(C)C)C(=O)N[C@@H](CCC(N)=O)C(=O)N[C@@H](CCCNC(=N)N)C(=O)N1)[C@@H](C)O)[C@@H](C)O)C(C)C)C(=O)N[C@@H](C)C(=O)N[C@@H](Cc1c[nH]c2ccccc12)C(=O)N[C@@H](CC(C)C)C(=O)N[C@H](C(=O)N[C@@H](CCCCN)C(=O)NCC(=O)N[C@@H](CCCNC(=N)N)C(=O)NCC(=O)NCC(=O)N[C@@H](CCCCN)C(=O)O)C(C)C [NT-GLP-1] | 100.0 ± 0.0% | 77.9 ± 7.5% | 58.3 ± 4.8% | 54.3 ± 3.7% | 48.8 ± 6.2% | 82.4 ± 3.1% | 72.1 ± 1.8% | 60.2 ± 4.9% | 42.2 ± 5.3% | 31 ± 3.1% | 95.4 ± 4.3% | 84.6 ± 3.2% | 85.5 ± 2.8% | 95.1 ± 0.9% | 79.7 ± 5.2% | – | – | – | – | – | –
CC[C@H](C)[C@H](NC(=O)[C@H](Cc1ccccc1)NC(=O)[C@H](CCC(=O)O)NC(=O)[C@H](CCCCN)NC(=O)[C@H](C)NC(=O)[C@H](C)NC(=O)[C@H](CCC(N)=O)NC(=O)CNC(=O)[C@H](CCC(=O)O)NC(=O)[C@H](CC(C)C)NC(=O)[C@H](Cc1ccc(O)cc1)NC(=O)[C@H](CO)NC(=O)[C@H](CO)NC(=O)[C@@H](NC(=O)[C@H](CC(=O)O)NC(=O)[C@H](CO)NC(=O)[C@@H](NC(=O)[C@H](Cc1ccccc1)NC(=O)[C@@H](NC(=O)CNC(=O)[C@H](CCC(=O)O)NC(=O)[C@H](C)NC(=O)[C@H](Cc1c[nH]cn1)NC(=O)CNC(=O)CNC(=O)[C@@H](NC(=O)[C@@H]1CCCN1C(=O)[C@@H](NC(=O)CNC(=O)CNC(=O)[C@@H]1CSSC[C@H](NC(=O)CNC(=O)CN)C(=O)N2CCC[C@H]2C(=O)N[C@@H](CCCCN)C(=O)N[C@@H]([C@@H](C)CC)C(=O)N[C@@H](CC(C)C)C(=O)N[C@@H](CCC(N)=O)C(=O)N[C@@H](CCCNC(=N)N)C(=O)N1)[C@@H](C)CC)[C@@H](C)CC)[C@@H](C)O)[C@@H](C)O)C(C)C)C(=O)N[C@@H](C)C(=O)N[C@@H](Cc1c[nH]c2ccccc12)C(=O)N[C@@H](CC(C)C)C(=O)N[C@H](C(=O)N[C@@H](CCCCN)C(=O)NCC(=O)N[C@@H](CCCNC(=N)N)C(=O)NCC(=O)NCC(=O)N[C@@H](CCCCN)C(=O)O)C(C)C [DT-GLP-1] | 100.0 ± 0.0% | 77.6 ± 1.7% | 76.7 ± 2.5% | 72.9 ± 1.7% | 66.4% | 67.5 ± 8.5% | 70.1 ± 11.6% | 61.9 ± 12.3% | 58.5 ± 12.5% | – | 85.2 ± 7% | 87.9 ± 3.9% | 87.3 ± 1.2% | 76 ± 6.7% | 68.6 ± 4.3% | 100.0 ± 0.0% | 92.1 ± 5.4% | 97.2 ± 1.2% | 94.1 ± 2.2% | 90.3 ± 3.2% | remaining at 12 h, 25 μM [4]: 92 ± 1.4%
CC[C@H](C)[C@H](NC(=O)[C@H](Cc1ccccc1)NC(=O)[C@H](CCC(=O)O)NC(=O)[C@H](CCCCN)NC(=O)[C@H](C)NC(=O)[C@H](C)NC(=O)[C@H](CCC(N)=O)NC(=O)CNC(=O)[C@H](CCC(=O)O)NC(=O)[C@H](CC(C)C)NC(=O)[C@H](Cc1ccc(O)cc1)NC(=O)[C@H](CO)NC(=O)[C@H](CO)NC(=O)[C@@H](NC(=O)[C@H](CC(=O)O)NC(=O)[C@H](CO)NC(=O)[C@@H](NC(=O)[C@H](Cc1ccccc1)NC(=O)[C@@H](NC(=O)CNC(=O)[C@H](CCC(=O)O)NC(=O)[C@H](C)NC(=O)[C@H](Cc1c[nH]cn1)NC(=O)CNC(=O)CNC(=O)[C@@H](NC(=O)[C@@H]1CCCN1C(=O)[C@@H](NC(=O)CNC(=O)CNC(=O)[C@H](CCCNC(=N)N)NC(=O)[C@H](CO)NC(=O)[C@H](Cc1ccccc1)NC(=O)[C@H](CCCNC(=N)N)NC(=O)[C@H](CCC(N)=O)NC(=O)CNC(=O)CN)[C@@H](C)CC)[C@@H](C)CC)[C@@H](C)O)[C@@H](C)O)C(C)C)C(=O)N[C@@H](C)C(=O)N[C@@H](Cc1c[nH]c2ccccc12)C(=O)N[C@@H](CC(C)C)C(=O)N[C@H](C(=O)N[C@@H](CCCCN)C(=O)NCC(=O)N[C@@H](CCCNC(=N)N)C(=O)NCC(=O)NCC(=O)N[C@@H](CCCCN)C(=O)O)C(C)C [DN-GLP-1] | 100.0 ± 0.0% | 86.6 ± 4.2% | 73.3 ± 2.1% | 69.3 ± 5.9% | 58.9 ± 4.9% | 1 ± 0.1% | 0% | 0% | 0% | 0% | 76.3 ± 2% | 62 ± 1.7% | 46.1 ± 0.9% | 31.9 ± 2.5% | 9 ± 0.8% | 100.0 ± 0.0% | 100 ± 4.2% | 98.6 ± 5.1% | 97.8 ± 2.7% | 97.8 ± 2.2% | remaining at 12 h, 25 μM [4]: 98.1 ± 7.1%
